Among the data in patent US4845079A, “Peptidylaminodiols” (priority 1988, dated 1989) are IC50 values, retold here.

Protein sequences, listed by entry. Tags and fused reporters are not part of them. Residues count along the entry.
UniProt P00797, 67-406: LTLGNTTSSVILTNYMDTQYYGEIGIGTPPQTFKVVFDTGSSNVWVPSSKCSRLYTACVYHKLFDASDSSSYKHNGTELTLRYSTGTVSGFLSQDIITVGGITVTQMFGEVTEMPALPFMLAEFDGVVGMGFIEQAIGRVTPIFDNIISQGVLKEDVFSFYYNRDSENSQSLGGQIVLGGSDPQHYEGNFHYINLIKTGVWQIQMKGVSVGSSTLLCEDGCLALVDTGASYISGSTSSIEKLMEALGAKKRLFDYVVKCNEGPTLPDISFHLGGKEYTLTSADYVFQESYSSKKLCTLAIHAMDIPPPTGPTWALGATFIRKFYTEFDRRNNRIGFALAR

The assay addresses T1, human renal renin (Homo sapiens, UniProt P00797).
T1 construct: with human renal renin, free from acid proteolytic activity; from tissue; host or cells: human kidney (concluded from the word 'renal')
Put plainly: in vitro inhibition of human renal renin (angiotensin I formed measured by radioimmunoassay). Conditions: human renal renin with renin substrate (human angiotensinogen), 37° C., pH 6.0. It counts as biochemical.
As to “(2S,3R,5R,8S,9R,10S)-7-Aza-2-(t butyloxycarbonylamino)-8-(cyclohexylmethyl)-5-isobutyl-12-methyl-1-phenyl- 3,9,10-trihydroxytridecane [Example 169]”, half-maximal inhibition (IC50) required 6 nM. This lies in the single-digit nanomolar range.
In the case of “2(S)-[[(4-Cbz-1-Piperazinyl)carbonyl]oxy]-3-phenylpropionyl-Phe-His Amide of 2(S)-Amino-1-cyclohexyl-3(R),4(S)-dihydroxy-6-methylheptane [Example 114]” it was 1.3 nM; in that of “2(S)-[[(1-Piperazinyl)carbonyl]oxy]-3-phenylpropionyl-Phe-His Amide of 2(S)-Amino-1-cyclohexyl-3(R),4(S)-dihydroxy-6-methylheptane [Example 115]”, 1 nM; in that of “(2S,3R,5R,8S,9R,10S)-7-Aza-2-(t-Butyloxycarbonylamino)-8-(cyclohexylmethyl)-12-methyl 5 -(4-pentenyl)-1-phenyl-3,9,10-trihydroxytridecane [Example 183]”, 12 nM.
In the case of “Ethoxycarbonyl-(OBn)Thr-His Amide of 2(S)-Amino-1-cyclohexyl-3(R),4(S)-dihydroxy-6-methylhexane [Example 101]”, half-maximal inhibition (IC50) was put at 5 nM.
